The record followed here is paper PMC6338342 (Journal of chromatography. B, Analytical technologies in …, 2016).

The mark [1] stands for this setting: rat serum, oral XLGB extract 3 g/kg, n = 6.
The mark [2] stands for this setting: rat serum, oral XLGB extract 6 g/kg, n = 6.
[3] abbreviates: rat serum, oral XLGB extract 12 g/kg, n = 6.

Where two headings read alike, the source gives them in different places.

Turning to icariside II, the “serum concentration (analytical signal) relative to LLOQ” value (rat serum, oral XLGB 3 g/kg) is recorded as “slightly higher than the corresponding LLOQs”. Under setting [1], the AUC0-t was determined as 5.52 ± 3.08 ng·h/mL, the “AUC0–∞” value turned out to be 17.00 ± 9.29 ng·h/mL, the peak concentration (Cmax) worked out at 3.74 ± 0.85 ng/mL and the “MRT0–t” value is 2.40 ± 1.54 h. For the same compound, under setting [1], the “MRT0–∞” value turned out to be 16.51 ± 12.48 h, the Tmax amounted to 0.50 ± 0 h and the t1/2 came to 12.23 ± 9.22 h. In addition, under setting [2], the AUC0-t came out at 85.46 ± 15.26 ng·h/mL, the “AUC0–∞” value was determined as 94.10 ± 16.91 ng·h/mL, the Cmax worked out at 23.64 ± 2.84 ng/mL and the “MRT0–t” value was 6.45 ± 3.98 h. Moreover, under setting [2], the “MRT0–∞” value stood at 10.51 ± 6.10 h, the Tmax is listed as 0.67 ± 0.41 h and the t1/2 is 9.93 ± 8.71 h. Also, under setting [3], the AUC0-t was 280.72 ± 40.81 ng·h/mL, the “AUC0–∞” value was 293.14 ± 38.79 ng·h/mL, the Cmax is 68.11 ± 12.99 ng/mL and the “MRT0–t” value is recorded as 5.33 ± 0.84 h. Also, under setting [3], the “MRT0–∞” value is 7.36 ± 1.41 h, the Tmax amounted to 1.83 ± 0.26 h and the t1/2 was found to be 9.90 ± 5.47 h.

Take `O=c1ccc2cc3ccoc3cc2o1` [Psoralen, psoralen]: the time of peak concentration (Tmax) (male, Sprague-Dawley, rat, serum, po, 12 g/kg) is 1.83 ± 0.41 h.
